Our source for the IC50 values is ChEMBL document CHEMBL1128343, “Synthesis, properties, and pharmacokinetic studies of N2-phenylguanine derivatives as inhibitors of herpes simplex virus thymidine kinases” (J Med Chem, 1995).

The target in assay [1] is T1, Thymidine kinase (Human alphaherpesvirus 1, UniProt Q9QNF7).
T1 sequence (Q9QNF7 whole entry): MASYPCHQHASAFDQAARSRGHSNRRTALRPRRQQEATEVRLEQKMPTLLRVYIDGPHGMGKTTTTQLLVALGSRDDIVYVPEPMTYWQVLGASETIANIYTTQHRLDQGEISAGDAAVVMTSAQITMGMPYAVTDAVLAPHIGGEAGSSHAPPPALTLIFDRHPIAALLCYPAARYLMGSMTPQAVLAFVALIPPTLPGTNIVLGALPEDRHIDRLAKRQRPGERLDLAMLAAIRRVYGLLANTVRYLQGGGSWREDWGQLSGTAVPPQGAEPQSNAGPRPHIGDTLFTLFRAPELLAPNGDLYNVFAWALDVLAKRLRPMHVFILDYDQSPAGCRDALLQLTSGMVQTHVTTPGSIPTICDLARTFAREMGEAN
Briefly: Inhibition of HSV-1 thymidine kinase, 1 uM [3H]thymidine and ATP as phosphate donor.

For assay [2], the target named is T2, Thymidine kinase (Human herpesvirus 2, UniProt Q6L709).
T2 sequence (Q6L709 whole entry): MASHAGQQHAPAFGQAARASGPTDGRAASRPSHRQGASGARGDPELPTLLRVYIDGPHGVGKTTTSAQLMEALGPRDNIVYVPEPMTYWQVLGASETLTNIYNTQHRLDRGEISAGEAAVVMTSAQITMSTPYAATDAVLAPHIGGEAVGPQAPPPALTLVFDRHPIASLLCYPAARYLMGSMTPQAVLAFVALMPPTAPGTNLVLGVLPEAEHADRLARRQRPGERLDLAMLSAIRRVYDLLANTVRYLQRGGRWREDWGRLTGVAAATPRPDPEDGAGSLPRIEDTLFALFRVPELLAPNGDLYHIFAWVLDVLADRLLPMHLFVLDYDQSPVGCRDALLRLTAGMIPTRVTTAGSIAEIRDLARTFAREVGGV
Briefly: Inhibition of HSV-2 thymidine kinase, 2 uM [3H]thymidine and ATP as phosphate donor. Further details: species or system Human alphaherpesvirus 2.

Consider `C=CCn1cnc2c(=O)[nH]c(Nc3ccccc3)nc21`, for which inhibition against Thymidine kinase [1] was half-maximal at 450 nM (IC50). Take `O=c1[nH]c(Nc2ccccc2)nc2c1ncn2CCO`: the IC50 was found to be 1200 nM on Thymidine kinase [2] and 2900 nM on Thymidine kinase [1].

What is called IC50 is the point on the concentration scale where inhibition reaches its midpoint.
